System: SK-BR-3 cells
Experiment: antiproliferative activity of empty immunoliposomes, monolayer culture, crystal violet
Assay type: cell-based
Conditions: continuous treatment for 4 days

rhuMAbHER2-Fab′: Monovalent Fab′ fragment of humanized anti-HER2 antibody rhuMAbHER2, expressed in E. coli
effect on cell growth: only modest growth inhibition
